# Assay results reported in PubChem BioAssay AID1766 (National Center for Advancing Translational Sciences (NCATS), 2009).
# This is a selection; strong and weak results do not stand in their true shares. Inconclusive results are not listed. Activity calls are given as the source filed them. Calls follow the shape of the dose curve; as a rule, active = well fitted curve in the direction sought with a large enough effect in the polarisation (not every such curve was filed as active); inconclusive = small, poorly fitted or top-dose-only effect, or effect the other way, or a change in a side signal; inactive = no such curve, though single readings can be large or run the other way; the % refers to the polarisation.
# Assay: qHTS Assay for Inhibitors Targeting the Menin-MLL Interaction in MLL Related Leukemias: Competition With Fluorescein Labeled MLL-derived Peptide; also: % of control where 0% means no effect
# Settings: Fluorescence polarization, fluorescein-MLL peptide displacement from menin; at 61.4 µM (top of the series)
row,SMILES,FP activity change
1,CN(C(=O)Cc1ccc(Cl)c(Cl)c1)[C@H]1CCCC[C@@H]1N1CCCC1,inactive: 4.82%
